# Measured values: patent US20080051454A1, “Compositions and methods for transient receptor potential vanilloid (TRPV) channel mediated treatments” (The Board of Trustees Operating Michigan State University, priority 2006, published 2008)
# How the values were obtained:
# [1] = tested on: Wistar rats fed a NS or HS diet for 3 weeks; experiment: MAP responses to i.v. CGRP in conscious rats (3-week diet); format: in vivo, rat
# Experimental: Surgical Preparation The rats were anesthetized with ketamine and xylazine (80 and 4 mg/kg ip, respectively) for implantation of artery and vein catheters. The left jugular vein and carotid artery were cannulated for administration of drugs or for monitoring of mean arterial pressure (MAP) and heart rate (HR) with a Statham 231D pressure transducer coupled to a Gould 2400s recorder (Gould Instruments, Dayton, Ohio, USA). For conscious animal experiments, catheters were routed subcutaneously and exteriorized between the scapulae. Rats were quietly brought to home cages 3 hours after surgery, and MAP and HR were continuously recorded. Regular room light was turned on during experiments. The rats were allowed to acclimate to their surroundings for 15-30 minutes in their cages, i.e., until which time they ceased exploring the new environment and their blood pressures stabilized. Baseline MAP and HR were recorded for 15 minutes before administration of drugs (Supowit et al., 1997; Wang and Wang, 2004).
# Protocol 2: To determine the role of the CGRP receptor in rats fed a HS diet, MAP responses to injection of CGRP (1 and 5 pg/kg bolus) were measured in conscious rats fed a NS or HS diet. Thirty minutes were allowed for stabilization of blood pressure between injections.
# [2] = tested on: Wistar rats fed a NS or HS diet for 10 days; experiment: MAP responses to i.v. CGRP in conscious rats (10-day diet); format: in vivo, rat; conditions: CGRP 0.5 μg/kg iv
# Experimental: Surgical Preparation Rats were anesthetized with ketamine and xylazine (80 and 4 mg/kg intraperitoneally, respectively) for cannulation or with urethane (1.5 g/kg intraperitoneally) for capsaicin administration. The left jugular vein, carotid and femoral artery were cannulated under anesthesia for injection of drugs or monitoring of mean arterial pressure (MAP) and heart rate (HR).
# Protocol 2: To examine the role of TRPV1 or CGRP receptor as a depressor during HS intake, MAP responses to administration of capsaicin (10 and 30 μg/kg), a selective TRPV1 receptor agonist, or CGRP (0.5, 1, and 5 μg/kg) were determined in anesthetized or conscious rats fed a NS or HS diet. Each dose of injection was separated by a 30-minute interval. To determine the specificity of capsaicin, CAPZ (3 mg/kg) was administered 10 minutes before capsaicin injection in a separate group.
substance,measurement,setting,value
"CGRP: 37-amino acid peptide, calcitonin gene-related peptide",reduction in MAP,"[1]; CGRP 1 μg/kg, HS 3 weeks",19±3 mmHg
same,reduction in MAP,"[1]; CGRP 1 μg/kg, NS 3 weeks",11±3 mmHg
same,reduction in MAP,"[1]; CGRP 5 μg/kg, HS 3 weeks",43±3 mmHg
same,reduction in MAP,"[1]; CGRP 5 μg/kg, NS 3 weeks",24±3 mmHg
same,decrease in MAP,[2]; HS,11±2 mmHg
same,decrease in MAP,[2]; NS,4±2 mmHg
